In patent US20220411487A1 (Regeneron, published 2022):

Tests used:
[1] = molecular target: T1, full length human TMPRSS6 on HEK293 cells (HEK293/hTMPRSS6) (human, UniProt Q8IU80 10-811); test: cell-based or functional assay
T1 sequence (looked up): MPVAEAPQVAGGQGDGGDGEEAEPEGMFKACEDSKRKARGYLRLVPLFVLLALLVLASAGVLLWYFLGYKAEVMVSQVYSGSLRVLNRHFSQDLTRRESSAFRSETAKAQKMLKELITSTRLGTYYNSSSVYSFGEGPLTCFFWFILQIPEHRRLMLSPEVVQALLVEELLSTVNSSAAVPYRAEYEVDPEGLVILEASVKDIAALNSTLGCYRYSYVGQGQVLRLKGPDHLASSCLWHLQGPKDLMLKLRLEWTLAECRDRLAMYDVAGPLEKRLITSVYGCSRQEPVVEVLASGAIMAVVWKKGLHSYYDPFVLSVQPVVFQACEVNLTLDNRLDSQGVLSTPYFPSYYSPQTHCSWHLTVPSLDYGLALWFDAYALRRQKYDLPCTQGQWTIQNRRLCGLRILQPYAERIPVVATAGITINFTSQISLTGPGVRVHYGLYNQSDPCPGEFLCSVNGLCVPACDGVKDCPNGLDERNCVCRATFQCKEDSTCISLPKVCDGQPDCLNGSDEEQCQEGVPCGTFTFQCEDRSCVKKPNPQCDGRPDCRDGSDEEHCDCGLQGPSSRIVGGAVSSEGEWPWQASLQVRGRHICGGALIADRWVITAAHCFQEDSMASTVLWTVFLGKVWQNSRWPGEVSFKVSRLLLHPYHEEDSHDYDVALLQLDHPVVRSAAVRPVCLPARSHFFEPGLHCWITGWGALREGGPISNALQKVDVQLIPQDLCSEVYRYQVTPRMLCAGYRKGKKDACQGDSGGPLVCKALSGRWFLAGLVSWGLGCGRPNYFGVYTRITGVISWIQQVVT

[2] = molecular target: T2, full length cynomolgous monkey TMPRSS6 on HEK293 cells (HEK293/mfTMPRSS6) (cynomolgous monkey/Macaca fascicularis, UniProt Q8IU80 10-811 (human entry)); test: cell-based or functional assay
T2 chain: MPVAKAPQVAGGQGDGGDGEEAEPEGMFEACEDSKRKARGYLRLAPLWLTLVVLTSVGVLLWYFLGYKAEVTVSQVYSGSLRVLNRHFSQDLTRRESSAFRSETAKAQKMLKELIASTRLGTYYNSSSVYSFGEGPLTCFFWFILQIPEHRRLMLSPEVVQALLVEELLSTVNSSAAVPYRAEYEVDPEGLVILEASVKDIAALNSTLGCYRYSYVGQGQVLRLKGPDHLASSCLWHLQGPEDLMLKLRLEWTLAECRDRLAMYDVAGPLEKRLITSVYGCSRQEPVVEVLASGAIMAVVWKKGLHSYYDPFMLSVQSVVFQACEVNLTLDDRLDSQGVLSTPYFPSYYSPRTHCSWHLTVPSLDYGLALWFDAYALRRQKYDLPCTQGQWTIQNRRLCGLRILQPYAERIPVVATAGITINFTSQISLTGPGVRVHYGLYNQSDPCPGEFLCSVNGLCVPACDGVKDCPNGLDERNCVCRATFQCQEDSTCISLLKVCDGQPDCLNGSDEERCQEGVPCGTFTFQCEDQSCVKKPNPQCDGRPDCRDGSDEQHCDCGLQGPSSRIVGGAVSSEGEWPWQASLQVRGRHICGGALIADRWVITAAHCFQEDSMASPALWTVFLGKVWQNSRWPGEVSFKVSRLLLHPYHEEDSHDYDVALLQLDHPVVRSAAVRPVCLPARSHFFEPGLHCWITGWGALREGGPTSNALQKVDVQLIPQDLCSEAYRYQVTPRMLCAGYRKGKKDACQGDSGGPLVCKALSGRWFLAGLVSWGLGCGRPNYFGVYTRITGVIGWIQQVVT

[3] = molecular target: T2, full length cynomolgous monkey TMPRSS6 …; test: cell-based or functional assay
[4] = molecular target: T1, full length human TMPRSS6 on HEK293 …; test: flow cytometry, HEK293 cells expressing target
Protocol: To assess the binding of anti-TMPRSS6 antibodies of the present disclosure to the receptor expressed on the cell surface, antibodies (including an IgG subclass control) were serially diluted in assay buffer (PBS without Ca⁺⁺ and Mg⁺⁺ containing 2% FBS) from 375 nM to 22.9 pM (plus a sample containing assay buffer alone without test molecule) and incubated with 0.5×10⁶ cells/well at 4° C. for 30 minutes in assay buffer. […] Cells were fixed using BD CytoFix™ (Becton Dickinson, #554655) and analyzed on either the IQue® or IQue®Plus Flow Cytometers (Intellicyt®). Unstained and secondary antibody alone controls were also tested for all cell lines. The results were analyzed using ForeCyt® (IntelliCyt®) software to determine the geometric means of fluorescence for viable cells and binding ratio was calculated by normalizing the geometric mean value of the test condition by the geometric mean value of the corresponding unstained cells.

% inhibition, HEK293 bioassay, 30 min pre-incubation 25 C [1]: 89% | IC50, HEK293 bioassay, 30 min pre-incubation 25 C [1]: 5.8 nM | % inhibition, HEK293 bioassay, 30 min pre-incubation 25 C [2]: 85% | IC50, HEK293 bioassay, 30 min pre-incubation 25 C [2]: 25 nM | % inhibition, HEK293 bioassay, overnight pre-incubation 37 C [3]: 42% | IC50, HEK293 bioassay, overnight pre-incubation 37 C [3]: > 10 nM | EC50 [4]: 2.7 nM | Max. Fold Binding [4]: 58 fold over unstained control
B1: REGN7973 (antibody, human IgG4 S228P, kappa, V domains shown)
VH: EVQLVESGGGLVKPGGSLRLSCAASGFTFSNAWMSWVRQAPGKGLEWVGRIKSKTDSGTTDYAAPVKGRFTISRDDSKNTLYLQMNSLKTEDTAVYYCTTVDNDFWSGYYNWFDPWGQGTLVTVSS
VL: [gap - about 100 residues]
notes: fully human; human IgG4 Fc with hinge S108P; also called mAb37777
